Results published in patent publication US20050250700A1 (BRACCO SUISSE, published 2005).
Like-named read-outs stand apart in the source and are kept apart here. Blank lines part the entries; values can stand above or below the binder they belong to.

Amino acid sequences for entries named in this document (tags omitted). Residues count along the entry.
UniProt P35968, 20-1356: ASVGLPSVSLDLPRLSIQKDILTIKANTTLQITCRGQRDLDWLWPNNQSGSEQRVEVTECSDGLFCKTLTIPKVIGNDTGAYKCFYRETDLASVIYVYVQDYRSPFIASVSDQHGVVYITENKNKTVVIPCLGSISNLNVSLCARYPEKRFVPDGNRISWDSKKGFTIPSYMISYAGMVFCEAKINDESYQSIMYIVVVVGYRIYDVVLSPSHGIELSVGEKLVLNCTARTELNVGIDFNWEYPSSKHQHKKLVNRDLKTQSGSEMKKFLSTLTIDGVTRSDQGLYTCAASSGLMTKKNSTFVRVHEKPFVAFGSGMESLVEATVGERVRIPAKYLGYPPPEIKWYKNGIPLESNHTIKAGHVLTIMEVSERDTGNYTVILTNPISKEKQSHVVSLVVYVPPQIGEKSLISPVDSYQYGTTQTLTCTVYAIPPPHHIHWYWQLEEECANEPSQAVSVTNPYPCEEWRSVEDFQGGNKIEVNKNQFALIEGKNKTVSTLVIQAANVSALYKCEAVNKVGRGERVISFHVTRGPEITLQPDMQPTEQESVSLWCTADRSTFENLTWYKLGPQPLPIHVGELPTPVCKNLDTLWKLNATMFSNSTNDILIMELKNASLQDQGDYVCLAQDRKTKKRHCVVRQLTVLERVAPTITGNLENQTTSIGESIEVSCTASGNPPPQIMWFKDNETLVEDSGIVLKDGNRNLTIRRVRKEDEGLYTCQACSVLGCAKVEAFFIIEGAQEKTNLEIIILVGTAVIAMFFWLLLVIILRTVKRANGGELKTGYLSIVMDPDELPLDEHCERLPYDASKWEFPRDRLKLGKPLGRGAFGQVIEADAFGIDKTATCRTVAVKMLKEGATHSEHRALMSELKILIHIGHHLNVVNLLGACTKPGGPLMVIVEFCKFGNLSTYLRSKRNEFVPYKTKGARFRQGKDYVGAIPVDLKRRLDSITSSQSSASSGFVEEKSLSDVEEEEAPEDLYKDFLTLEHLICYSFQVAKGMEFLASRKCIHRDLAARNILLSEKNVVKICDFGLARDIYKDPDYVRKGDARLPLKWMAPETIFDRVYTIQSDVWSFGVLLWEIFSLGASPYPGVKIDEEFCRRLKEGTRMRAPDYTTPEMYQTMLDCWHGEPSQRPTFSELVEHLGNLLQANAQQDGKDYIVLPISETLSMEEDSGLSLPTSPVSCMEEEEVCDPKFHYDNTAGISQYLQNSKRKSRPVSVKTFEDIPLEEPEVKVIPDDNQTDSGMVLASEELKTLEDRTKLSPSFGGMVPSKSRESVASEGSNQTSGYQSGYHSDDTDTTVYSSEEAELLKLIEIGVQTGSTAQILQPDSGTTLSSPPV

What was measured:
[1] = target: T1, KDR (VEGFR-2), full-length receptor on cells (human, UniProt P35968 20-1356); assay: biotinylated peptide (JJ spacer) in the neutravidin-HRP assay on KDR-expressing cells
T1 construct: whole, on cells; the assay field tells which cells; also called KDR-expressing cells

[2] = target: T1, KDR (VEGFR-2), full-length receptor on …

Kd [1]: 6.94 nM
Binder: VCWEDSWGGEVCFRYDPGGGK (other, N-acetyl; disulfide; C-terminal Lys(Biotin-JJ)-NH2, peptides held on neutravidin-HRP) [biotinylated SEQ ID NO:337 (JJ spacer) complexed with neutravidin-HRP]

Kd [1]: 3.02 nM
B1: biotinylated SEQ ID NO:338 (JJ spacer) complexed with neutravidin-HRP (other)
peptide: AGPTWCEDDWYYCWLFGTK
modifications: N-acetyl; disulfide; J (8-amino-3,6-dioxaoctanoyl) in the chain; C-terminal Lys(Biotin-JJ)-NH2
notes: peptides held on neutravidin-HRP

Kd [2]: 1.81 nM
B2: tetrameric complex of biotinylated SEQ ID NO:356 (JJ spacer) with neutravidin-HRP (other)
peptide: AQDWYYDEILSMADQLRHAFLSGGGGGK
modifications: N-acetyl; C-terminal Lys(Biotin-JJ)-NH2
notes: peptides held on neutravidin-HRP (Pierce 31001)
